Earlier results, collected in US20040167185A1, “Methods of treating conditions associated with an Edg-3 receptor” (priority 2003, published 2004).

Molecular target: Adrenergic α2

## COC(=O)[C@H]1[C@H]2C[C@H]3c4[nH]c5ccccc5c4CCN3C[C@H]2CC[C@@H]1O [^3H Rauwolscine, Rauwolscine]
  Kd: 7.8 nM
